The record followed here is BigSolDB 2.1.

The conditions of this data set: in n-butanol, 305.65 K.

Each structure is given as a SMILES string.

One may read the solubility (mole fraction) as solubility expressed as the solute's share of all molecules. `CC1=NN(c2ccc(C)cc2)C(=O)C1` gave a solubility (mole fraction) of 0.0479.
